This is a selection; strong and weak results do not stand in their true shares. Activity calls are given as the source filed them. No stated cut-off is given here; in the data, active means inhibition above about 11%; inactive means the rest.

Protein sequences, listed by entry. Tags and fused reporters are not part of them.
UniProt Q01970, whole entry: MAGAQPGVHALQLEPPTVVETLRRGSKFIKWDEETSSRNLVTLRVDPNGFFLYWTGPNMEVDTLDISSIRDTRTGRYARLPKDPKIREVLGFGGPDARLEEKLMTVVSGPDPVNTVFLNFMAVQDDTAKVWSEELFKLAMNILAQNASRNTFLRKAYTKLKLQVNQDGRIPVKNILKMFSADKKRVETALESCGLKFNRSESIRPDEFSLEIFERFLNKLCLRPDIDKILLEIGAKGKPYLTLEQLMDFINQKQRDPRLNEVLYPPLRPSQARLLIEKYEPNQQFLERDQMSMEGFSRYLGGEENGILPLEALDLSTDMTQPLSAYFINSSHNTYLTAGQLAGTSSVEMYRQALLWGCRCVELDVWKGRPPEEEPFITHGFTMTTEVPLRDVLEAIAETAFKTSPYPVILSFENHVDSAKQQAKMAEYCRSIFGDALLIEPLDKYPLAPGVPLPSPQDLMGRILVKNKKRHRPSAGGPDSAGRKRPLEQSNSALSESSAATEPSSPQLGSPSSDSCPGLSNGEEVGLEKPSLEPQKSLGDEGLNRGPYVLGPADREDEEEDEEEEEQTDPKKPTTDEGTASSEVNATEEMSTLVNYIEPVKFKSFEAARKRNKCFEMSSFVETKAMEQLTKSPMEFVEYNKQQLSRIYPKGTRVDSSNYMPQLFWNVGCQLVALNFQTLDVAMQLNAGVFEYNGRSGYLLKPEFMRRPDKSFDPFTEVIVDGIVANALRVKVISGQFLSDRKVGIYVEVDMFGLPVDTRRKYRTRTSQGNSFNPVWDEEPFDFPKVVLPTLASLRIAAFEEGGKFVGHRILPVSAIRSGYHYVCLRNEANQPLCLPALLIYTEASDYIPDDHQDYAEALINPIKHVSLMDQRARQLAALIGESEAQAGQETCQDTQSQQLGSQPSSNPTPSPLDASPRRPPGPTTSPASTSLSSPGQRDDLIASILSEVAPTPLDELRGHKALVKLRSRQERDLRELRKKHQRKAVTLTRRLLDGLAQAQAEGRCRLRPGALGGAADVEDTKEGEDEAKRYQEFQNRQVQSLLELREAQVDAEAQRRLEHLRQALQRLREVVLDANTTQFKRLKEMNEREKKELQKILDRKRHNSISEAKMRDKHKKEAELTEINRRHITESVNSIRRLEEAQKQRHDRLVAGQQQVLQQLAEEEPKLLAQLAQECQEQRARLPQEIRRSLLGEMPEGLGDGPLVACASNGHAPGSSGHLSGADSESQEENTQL

The assay concerns the target 1-phosphatidylinositol 4,5-bisphosphate phosphodiesterase beta-3 (Homo sapiens) (UniProt Q01970). In words: phospholipase C beta3 enzyme inhibition – biochemical, fluorescence, primary screen (AID 720704).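 Further: 0% = median of compound wells on plate and 100% = full blocker control.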 Conditions: Purified PLC-beta3, fluorogenic substrate, at 12.2 µM, hits give high values.
Regarding `CCCCn1nnnc1C(c1ccnc2ccccc12)N1CCC(n2c(=O)[nH]c3ccccc32)CC1` (stereo not given), the inhibition was inactive: 1.84%.
With `CCC(c1nnnn1C(C)(C)C)N1CCC(n2c(=O)[nH]c3ccccc32)CC1` (stereo not given) the figure was inactive: -1.09%; with `O=C(NCC1(N2CCOCC2)CCCCC1)c1cc(F)c(F)cc1Cl`, inactive: -3.25%.
Then `COc1cc(OC)c(C(=O)NCC2(N(C)C)CCCCC2)cc1OC`, with inactive: -8.84%; and `CN(C)c1cccc(C(=O)NCC2(N3CCCCC3)CCCCC2)c1`, with inactive: -78.6%; and `COC(=O)C1(Nc2ccccc2)CCN(Cc2ccccc2)CC1`, with inactive: 3.49%.
With `COc1ccc(CN(CCCl)CCCl)cc1Cl` the figure was inactive: -2.07%; with `CC(C)c1ccc(NC2CCN(C(=O)OC(C)(C)C)CC2)cc1`, inactive: -7.08%.
For `CCCOc1ccc(C(=O)NCC2(N(C)C)CCCCC2)cc1OC`, the inhibition was inactive: -6.89%.
With `Cc1ccc(C(=O)NCC2(N(C)C)CCCCC2)o1` the figure was inactive: 5.67%.
Then `COc1ccc(C(c2nnnn2C2CCCC2)N2CCC(n3c(=O)[nH]c4ccccc43)CC2)cc1` (stereo not given), with inactive: 2.92%; and `O=C(NCC1(N2CCCCC2)CCCCC1)c1cncc(Br)c1`, with inactive: -6.51%; and `CN1CCC(Nc2cccc(F)c2)CC1`, with inactive: 7.48%.
With `O=C(NCC1(N2CCCCC2)CCCCC1)c1cccc([N+](=O)[O-])c1` the figure was inactive: -5.28%; with `CSc1ccc(C(=O)NCC2(N3CCOCC3)CCCCC2)cc1`, inactive: 5.62%; with `N#CC1(Nc2ccccc2)CCN(CCc2ccccc2)CC1`, inactive: 4.06%.
Regarding `O=c1[nH]c2ccccc2n1C1CCN(C(c2ccccc2OC(F)(F)F)c2nnnn2C2CCCC2)CC1` (stereo not given), the inhibition was inactive: 0.91%.
With `CCN1CCC(Nc2ccc(Cl)cc2)CC1` the figure was inactive: -3.5%.
Then `O=C(NCC1(N2CCCCC2)CCCCC1)c1ccc(OC(F)F)cc1`, with inactive: -5.6%; and `CC(C)(C)n1nnnc1C(c1ccccc1OC(F)(F)F)N1CCC(n2c(=O)[nH]c3ccccc32)CC1` (stereo not given), with inactive: 3.08%.
Turning to `CCCCn1nnnc1C(c1cccc2ccccc12)N1CCC(n2c(=O)[nH]c3ccccc32)CC1` (stereo not given), the inhibition was inactive: -1.5%.
Then `CC(C)c1ccc(C(=O)NCC2(N3CCOCC3)CCCCC2)cc1`, with inactive: -3.42%; and `COc1ccc(NC2CCN(C(=O)OC(C)(C)C)CC2)cc1`, with inactive: -6.12%; and `CN1CCN(CCOC(=O)C(O)(c2ccccc2)c2ccccc2)CC1`, with inactive: 2.98%.
With `O=C(NCC1(N2CCOCC2)CCCCC1)c1cc(=O)[nH]c2ccccc12` the figure was inactive: -6.17%; with `COc1cc(C(=O)NCC2(N3CCCCC3)CCCCC2)ccc1OC(F)F`, inactive: -0.77%; with `O=C(NCC1(N2CCCCC2)CCCCC1)c1cccc(C(F)(F)F)c1`, inactive: -5.02%.
With `CCOC(=O)N1CCC(Nc2ccc(F)cc2)CC1` the figure was inactive: 1.92%; with `COc1ccc(NC2CCN(CCc3ccccc3)CC2)c(OC)c1`, inactive: -2.53%.
With `O=C(NCC1(N2CCCCC2)CCCCC1)c1ccc(F)cc1`, the inhibition is inactive: -4.53%.
Regarding `CCCCOc1ccc(C(=O)NCC2(N3CCOCC3)CCCCC2)cc1`, the inhibition was inactive: 2.2%.
With `CCCCn1nnnc1C(c1cc2ccccc2o1)N1CCC(n2c(=O)[nH]c3ccccc32)CC1` (stereo not given) the figure was inactive: 3.5%.
With `O=P1(N(CCCl)CCCl)SCCCS1` the figure was inactive: 1.92%; with `CCOc1ccc(C)cc1CN(CCCl)CCCl`, inactive: -2.85%; with `O=C1CCN(Cc2ccccc2)CC1`, inactive: -1.22%.
Then `CC(C)(C)n1nnnc1C(c1ccccc1)N1CCC(n2c(=O)[nH]c3ccccc32)CC1` (stereo not given), with inactive: 2.07%; and `O=c1[nH]c2ccccc2n1C1CCN(C(c2cccc3ccccc23)c2nnnn2C2CCCC2)CC1` (stereo not given), with inactive: 3.19%; and `COc1cc(C(=O)NCC2(N(C)C)CCCCC2)ccc1OC(F)F`, with inactive: -7.39%.
As for `CCOC(=O)N1CCC(Nc2cccc(C)c2)CC1`, the inhibition was inactive: -6.29%.
Then `O=c1[nH]c2ccccc2n1C1CCN(C(c2ccccc2)c2nnnn2C2CCCCC2)CC1` (stereo not given), with inactive: 0.33%; and `Cc1cccc(NC2(C#N)CCN(Cc3ccccc3)CC2)c1`, with active: 14.9%.
With `CSc1ccccc1C(=O)NCC1(N2CCCCC2)CCCCC1`, the inhibition was inactive: -7.19%.
`CCCCn1nnnc1C(c1cccs1)N1CCC(n2c(=O)[nH]c3ccccc32)CC1` (stereo not given): the inhibition is inactive: -0.69%.
Then `O=C(NCC1(N2CCCCC2)CCCCC1)c1cccs1`, with inactive: -1.3%.
With `CCCCn1nnnc1C(CC)N1CCC(n2c(=O)[nH]c3ccccc32)CC1` (stereo not given) the figure was inactive: 1.07%; with `O=C(NCC1(N2CCCCC2)CCCCC1)c1ccc(=O)[nH]c1`, inactive: -8.1%.
Turning to `CCC(c1nnnn1C1CCCC1)N1CCC(n2c(=O)[nH]c3ccccc32)CC1` (stereo not given), the inhibition was inactive: 1.95%.
With `CC(C)(C)OC(=O)N1CCC(N(C(=O)c2ccccc2)c2ccc(F)cc2)CC1` the figure was inactive: 1.56%; with `COc1ccc(C(=O)NCC2(N3CCCCC3)CCCCC2)c(OC)c1OC`, inactive: -7.1%; with `COc1ccc(C(=O)NCC2(N3CCCCC3)CCCCC2)cc1`, inactive: -4.18%.
For `CCCCn1nnnc1C(c1ccc(OC)cc1)N1CCC(n2c(=O)[nH]c3ccccc32)CC1` (stereo not given), the inhibition was inactive: 1.78%.
Then `CCOC(=O)N1CCC(Nc2ccc(OC)cc2)CC1`, with inactive: 0.45%; and `COc1ccc(Cl)cc1C(=O)NCC1(N2CCOCC2)CCCCC1`, with inactive: 2.47%.
Then `O=c1[nH]c2ccccc2n1C1CCN(C(c2cc3ccccc3o2)c2nnnn2C2CCCCC2)CC1` (stereo not given), with inactive: -0.59%.
With `O=C(OC1CN2CCC1CC2)C1c2ccccc2Oc2ccccc21` (stereo not given) the figure was inactive: 0.9%.
As to `O=C(NCC1(N2CCCCC2)CCCCC1)c1ccc(Cl)s1`, the inhibition is inactive: -7.71%.
With `N#CC1(Nc2ccccc2)CCN(Cc2ccccc2)CC1` the figure was inactive: 0.21%; with `O=C(NCC1(N2CCOCC2)CCCCC1)c1cc2ccccc2o1`, inactive: -2.33%; with `Cc1cc(C)cc(N(C(=O)c2ccccc2)C2CCN(C(=O)OC(C)(C)C)CC2)c1`, inactive: -3%.
Then `O=c1[nH]c2ccccc2n1C1CCN(C(c2ccccc2OC(F)(F)F)c2nnnn2C2CCCCC2)CC1` (stereo not given), with inactive: -0.16%; and `O=C(NCC1(N2CCCCC2)CCCCC1)c1ccc(Cl)nc1`, with inactive: -19.4%; and `CCCOc1ccc(C(=O)NCC2(N(C)C)CCCCC2)cc1`, with inactive: -5.65%.
Then `O=c1[nH]c2ccccc2n1C1CCN(C(c2cc3ccccc3o2)c2nnnn2C2CCCC2)CC1` (stereo not given), with inactive: -4.41%; and `NN(c1ccccc1)C1CCN(CCc2ccccc2)CC1`, with inactive: 0.81%; and `O=C(O)C1(Nc2ccccc2)CCN(Cc2ccccc2)CC1`, with inactive: -8.43%.
Regarding `CC(C)(C)OC(=O)N1CCC(Nc2ccccc2)CC1`, the inhibition was inactive: -6.7%.
Then `CN1CCC(Nc2ccc(F)c(Cl)c2)CC1`, with inactive: -6.64%.
Then `CCOc1ncccc1C(=O)NCC1(N2CCOCC2)CCCCC1`, with inactive: -2%; and `CN1CCC(Nc2ccc(Cl)cc2)CC1`, with inactive: -6.35%.
Consider `CCC(CO)(C(=O)OC1CN2CCC1CC2)c1ccccc1` (stereo not given), for which the inhibition was inactive: 5.83%.
With `COc1cccc(C(=O)N(c2cc(C)cc(C)c2)C2CCN(C(=O)OC(C)(C)C)CC2)c1` the figure was inactive: -3.74%.
With `COc1cc(OC)cc(C(=O)NCC2(N3CCOCC3)CCCCC2)c1` the figure was inactive: 0.23%; with `COc1cccc(C(c2nnnn2C2CCCC2)N2CCC(n3c(=O)[nH]c4ccccc43)CC2)c1OC` (stereo not given), inactive: 2.45%.
For `Cc1ccc(NC2(C#N)CCN(Cc3ccccc3)CC2)cc1`, the inhibition is inactive: 3.74%.
With `Fc1ccccc1NC1CCN(Cc2ccccc2)CC1` the figure was inactive: -8.51%.
Then `Cc1ccc(C(=O)NCC2(N3CCCCC3)CCCCC2)o1`, with inactive: -6.5%; and `O=c1[nH]c2ccccc2n1C1CCN(C(c2ccnc3ccccc23)c2nnnn2C2CCCCC2)CC1` (stereo not given), with inactive: -1.12%.
With `COc1cc(OC)cc(C(=O)NCC2(N3CCCCC3)CCCCC2)c1` the figure was inactive: -3.92%; with `CCC(c1nnnn1C1CCCCC1)N1CCC(n2c(=O)[nH]c3ccccc32)CC1` (stereo not given), inactive: 3.78%; with `CC(=O)N(c1ccccc1)C1CCNCC1`, inactive: -1.83%.
With `COc1cccc(C(c2nnnn2C2CCCCC2)N2CCC(n3c(=O)[nH]c4ccccc43)CC2)c1OC` (stereo not given), the inhibition was inactive: 1.47%.
Then `Cn1c(=O)[nH]cc(N(CCCl)CCCl)c1=O`, with inactive: 3.24%.
With `CN(C)c1ccc(C(=O)NCC2(N3CCCCC3)CCCCC2)cc1` the figure was inactive: 0.63%; with `O=C(NCC1(N2CCCCC2)CCCCC1)c1ccco1`, inactive: -1.14%; with `CC(C)(C)n1nnnc1C(c1ccnc2ccccc12)N1CCC(n2c(=O)[nH]c3ccccc32)CC1` (stereo not given), inactive: 4.67%.
With `CCN1CCC(Nc2cccc(F)c2)CC1`, the inhibition is inactive: 5.64%.
Then `COc1ccc(C(c2nnnn2C2CCCCC2)N2CCC(n3c(=O)[nH]c4ccccc43)CC2)cc1` (stereo not given), with inactive: 1.45%; and `Cc1ccccc1NC1(C#N)CCN(Cc2ccccc2)CC1`, with inactive: 1.24%.
With `CC(C)(C)OC(=O)N1CCC(N(C(=O)c2ccccc2)c2ccc(Cl)cc2)CC1` the figure was inactive: -3.3%; with `N#Cc1ccc(C(=O)NCC2(N3CCCCC3)CCCCC2)cc1`, inactive: -5.88%.
With `CC(C)(C)n1nnnc1C(c1cccc2ccccc12)N1CCC(n2c(=O)[nH]c3ccccc32)CC1` (stereo not given) the figure was inactive: -3.54%; with `Cc1cc(N(CCCl)CCCl)ccc1C=O`, inactive: -1.83%; with `O=c1[nH]c2ccccc2n1C1CCN(C(c2ccccc2)c2nnnn2C2CCCC2)CC1` (stereo not given), inactive: 0.78%.
On to `CCCN1CCC(Nc2cc(OC)cc(OC)c2)CC1`, for which the inhibition is inactive: -8.8%.
Then `c1ccc(CN2CCC(Nc3ccccc3)CC2)cc1`, with inactive: -0.67%; and `C/C(N)=N\P(=O)(Oc1ccccc1)Oc1ccccc1`, with inactive: 5.8%; and `CN(C)C1(CNC(=O)c2cccc(C#N)c2)CCCCC1`, with inactive: -3.07%.
Then `O=c1[nH]c2ccccc2n1C1CCN(C(c2ccnc3ccccc23)c2nnnn2C2CCCC2)CC1` (stereo not given), with inactive: 0.07%; and `COc1ccc(C(=O)NCC2(N3CCOCC3)CCCCC2)cc1OC`, with inactive: -0.55%.
Then `NC(=O)C1(Nc2ccccc2)CCN(Cc2ccccc2)CC1`, with inactive: 4.44%; and `O=c1[nH]c2ccccc2n1C1CCN(C(c2cccs2)c2nnnn2C2CCCCC2)CC1` (stereo not given), with inactive: -0.08%.
Turning to `O=C(NCC1(N2CCOCC2)CCCCC1)c1cc(Br)ccc1Cl`, the inhibition was inactive: -4.57%.
Then `COc1cc(C(=O)NCC2(N3CCOCC3)CCCCC2)cc(OC)c1C`, with inactive: -6.64%; and `CCCCn1nnnc1C(c1ccccc1)N1CCC(n2c(=O)[nH]c3ccccc32)CC1` (stereo not given), with inactive: 3.27%; and `CCCCn1nnnc1C(c1cccc(OC)c1OC)N1CCC(n2c(=O)[nH]c3ccccc32)CC1` (stereo not given), with inactive: 5.77%.
With `O=c1[nH]c2ccccc2n1C1CCN(C(c2cccs2)c2nnnn2C2CCCC2)CC1` (stereo not given) the figure was inactive: 7.13%.
Consider `O=C(OC1CN2CCC1CC2)C1c2ccccc2C=Cc2ccccc21` (stereo not given), for which the inhibition was inactive: -1.94%.
With `N/C(=N\O)c1c(N)no[n+]1[O-]` the figure was inactive: 0.94%.
Then `COc1cccc(C(c2nnnn2C(C)(C)C)N2CCC(n3c(=O)[nH]c4ccccc43)CC2)c1OC` (stereo not given), with inactive: 0.44%; and `CCOC(=O)N1CCC(Nc2ccc(C)cc2)CC1`, with inactive: -6.59%.

Broadly, the inhibition is the change of the read-out against control, counted positive when it falls.

These data come from PubChem BioAssay AID720704 (The Scripps Research Institute Molecular Screening Center, 2013).
